Measurements taken from ChEMBL document CHEMBL2346629, “Discovery and characterization of novel allosteric FAK inhibitors” (Eur J Med Chem, 2013).

Chains of the proteins cited; added tags and fusions are not shown.
UniProt Q05397, whole entry: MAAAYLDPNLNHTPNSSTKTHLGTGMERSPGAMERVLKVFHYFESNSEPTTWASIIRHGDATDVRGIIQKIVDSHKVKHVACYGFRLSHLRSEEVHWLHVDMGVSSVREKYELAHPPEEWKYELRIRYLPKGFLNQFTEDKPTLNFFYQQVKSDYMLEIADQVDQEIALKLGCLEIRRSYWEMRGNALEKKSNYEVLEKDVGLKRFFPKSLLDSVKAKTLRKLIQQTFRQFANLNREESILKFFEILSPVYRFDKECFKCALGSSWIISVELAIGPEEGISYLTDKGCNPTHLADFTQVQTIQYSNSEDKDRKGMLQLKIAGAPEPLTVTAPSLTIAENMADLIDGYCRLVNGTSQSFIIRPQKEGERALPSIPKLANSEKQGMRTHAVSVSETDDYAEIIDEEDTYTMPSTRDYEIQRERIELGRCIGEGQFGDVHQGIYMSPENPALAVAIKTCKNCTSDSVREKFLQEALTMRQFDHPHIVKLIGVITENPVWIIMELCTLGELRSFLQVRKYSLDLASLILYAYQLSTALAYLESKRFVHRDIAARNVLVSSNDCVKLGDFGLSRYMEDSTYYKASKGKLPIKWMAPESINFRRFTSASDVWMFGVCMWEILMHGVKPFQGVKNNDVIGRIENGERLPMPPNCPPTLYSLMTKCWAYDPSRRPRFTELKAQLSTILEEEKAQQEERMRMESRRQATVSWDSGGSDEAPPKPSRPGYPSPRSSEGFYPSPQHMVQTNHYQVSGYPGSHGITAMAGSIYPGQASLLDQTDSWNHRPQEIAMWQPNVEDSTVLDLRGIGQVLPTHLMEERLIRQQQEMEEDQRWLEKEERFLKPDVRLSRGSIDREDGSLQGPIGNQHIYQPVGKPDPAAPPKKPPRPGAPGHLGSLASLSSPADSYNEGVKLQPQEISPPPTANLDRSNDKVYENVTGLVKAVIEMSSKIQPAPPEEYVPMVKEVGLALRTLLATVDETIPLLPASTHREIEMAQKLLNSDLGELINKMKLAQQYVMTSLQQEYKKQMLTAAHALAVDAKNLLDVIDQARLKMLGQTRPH

Molecular target: Focal adhesion kinase 1 (Homo sapiens, UniProt Q05397)

IC50: 8.7 µM
Compound: CCc1ccc(-c2ccc3c(c2)-c2c(cnn2CC)S(=O)(=O)N3C)cc1
